Laboratory results from ChEMBL document CHEMBL5321237 (Eur J Med Chem, 2023).

Sequences of proteins named here, by UniProt entry; tags and fusion partners are left off.
UniProt P07333, whole entry: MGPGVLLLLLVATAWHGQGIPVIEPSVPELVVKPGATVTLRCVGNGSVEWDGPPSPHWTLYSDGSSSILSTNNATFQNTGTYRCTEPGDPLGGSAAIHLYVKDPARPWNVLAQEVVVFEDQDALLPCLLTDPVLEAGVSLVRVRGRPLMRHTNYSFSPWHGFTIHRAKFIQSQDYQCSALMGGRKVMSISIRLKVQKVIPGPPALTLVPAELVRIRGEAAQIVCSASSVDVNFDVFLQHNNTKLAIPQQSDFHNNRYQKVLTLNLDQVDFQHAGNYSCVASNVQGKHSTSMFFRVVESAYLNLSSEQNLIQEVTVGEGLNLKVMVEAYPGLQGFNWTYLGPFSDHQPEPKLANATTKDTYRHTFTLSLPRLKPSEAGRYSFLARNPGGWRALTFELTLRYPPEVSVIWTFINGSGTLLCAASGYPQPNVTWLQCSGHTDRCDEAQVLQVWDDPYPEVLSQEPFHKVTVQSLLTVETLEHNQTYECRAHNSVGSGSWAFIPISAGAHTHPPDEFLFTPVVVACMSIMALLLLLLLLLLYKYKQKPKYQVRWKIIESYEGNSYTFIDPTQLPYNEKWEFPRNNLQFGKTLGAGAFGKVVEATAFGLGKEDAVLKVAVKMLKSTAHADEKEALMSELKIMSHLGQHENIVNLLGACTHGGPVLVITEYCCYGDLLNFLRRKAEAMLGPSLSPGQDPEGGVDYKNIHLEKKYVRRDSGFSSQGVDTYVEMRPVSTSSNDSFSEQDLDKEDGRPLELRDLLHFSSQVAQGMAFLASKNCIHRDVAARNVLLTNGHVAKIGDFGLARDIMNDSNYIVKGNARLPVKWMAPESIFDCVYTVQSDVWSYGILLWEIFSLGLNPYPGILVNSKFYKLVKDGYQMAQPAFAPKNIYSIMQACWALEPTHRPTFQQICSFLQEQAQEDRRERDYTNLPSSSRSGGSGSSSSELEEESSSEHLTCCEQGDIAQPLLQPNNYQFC

What was measured:
[1] = target: T1, Macrophage colony-stimulating factor 1 receptor (Mus musculus) (UniProt P09581); assay: Inhibition of CSF1-induced CSF1R signalling in mouse BMDM cells assessed as reduction in ERK1/2 phosphorylation by measuring fold change preincubated for 30 mins followed by CSF1 addition and measured after 10 mins relative to pexidartinib; format: cell-based; conditions: time 40.0 min
T1 sequence (whole entry): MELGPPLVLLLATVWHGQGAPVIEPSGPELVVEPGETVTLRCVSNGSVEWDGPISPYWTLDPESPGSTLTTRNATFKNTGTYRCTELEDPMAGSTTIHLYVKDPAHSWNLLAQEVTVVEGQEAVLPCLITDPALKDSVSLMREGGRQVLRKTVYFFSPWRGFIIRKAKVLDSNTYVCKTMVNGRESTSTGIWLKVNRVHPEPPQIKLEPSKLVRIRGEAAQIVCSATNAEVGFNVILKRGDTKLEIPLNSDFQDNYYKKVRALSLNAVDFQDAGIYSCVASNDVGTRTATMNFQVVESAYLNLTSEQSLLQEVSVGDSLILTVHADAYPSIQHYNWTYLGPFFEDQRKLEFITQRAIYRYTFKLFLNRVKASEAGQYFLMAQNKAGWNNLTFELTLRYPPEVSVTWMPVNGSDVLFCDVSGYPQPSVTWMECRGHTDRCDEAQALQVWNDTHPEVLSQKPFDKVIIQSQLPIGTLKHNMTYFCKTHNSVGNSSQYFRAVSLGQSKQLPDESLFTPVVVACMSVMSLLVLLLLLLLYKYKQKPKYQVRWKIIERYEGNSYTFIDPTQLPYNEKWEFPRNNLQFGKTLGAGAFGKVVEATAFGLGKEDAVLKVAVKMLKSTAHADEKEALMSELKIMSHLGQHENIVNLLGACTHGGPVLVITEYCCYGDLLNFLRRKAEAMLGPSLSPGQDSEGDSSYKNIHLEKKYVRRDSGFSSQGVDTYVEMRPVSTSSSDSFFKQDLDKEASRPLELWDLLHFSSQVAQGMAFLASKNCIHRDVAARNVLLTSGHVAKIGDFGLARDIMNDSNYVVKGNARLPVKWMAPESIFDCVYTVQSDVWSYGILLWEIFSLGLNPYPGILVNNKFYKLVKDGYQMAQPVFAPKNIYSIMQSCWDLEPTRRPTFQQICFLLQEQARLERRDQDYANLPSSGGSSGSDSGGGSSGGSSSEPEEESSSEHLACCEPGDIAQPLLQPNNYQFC

[2] = target: Macrophage colony-stimulating factor 1 receptor (Homo sapiens, UniProt P07333); assay: Selectivity index, ratio of Kd for non-autoinhibited form of CSF1R (unknown origin) to Kd for autoinhibited form of CSF1R (unknown origin)

fold change (FC) [1]: 0.9 | Ratio [2]: 18
Structure (SMILES): CN(CC1CCOCC1)c1ncnc2[nH]c(-c3ccc(CO)cc3)nc12
